This is a selection; strong and weak results do not stand in their true shares. Activity calls are given as the source filed them. The call rests on the fitted dose curve; in most records, active means well fitted activation curve with a large enough effect; inconclusive means small, poorly fitted or top-dose-only effect; inactive means no such curve, though single readings can be large or run the other way.

Sequences of proteins named here, by UniProt entry; tags and fusion partners are left off.
UniProt Q8WZA2, whole entry: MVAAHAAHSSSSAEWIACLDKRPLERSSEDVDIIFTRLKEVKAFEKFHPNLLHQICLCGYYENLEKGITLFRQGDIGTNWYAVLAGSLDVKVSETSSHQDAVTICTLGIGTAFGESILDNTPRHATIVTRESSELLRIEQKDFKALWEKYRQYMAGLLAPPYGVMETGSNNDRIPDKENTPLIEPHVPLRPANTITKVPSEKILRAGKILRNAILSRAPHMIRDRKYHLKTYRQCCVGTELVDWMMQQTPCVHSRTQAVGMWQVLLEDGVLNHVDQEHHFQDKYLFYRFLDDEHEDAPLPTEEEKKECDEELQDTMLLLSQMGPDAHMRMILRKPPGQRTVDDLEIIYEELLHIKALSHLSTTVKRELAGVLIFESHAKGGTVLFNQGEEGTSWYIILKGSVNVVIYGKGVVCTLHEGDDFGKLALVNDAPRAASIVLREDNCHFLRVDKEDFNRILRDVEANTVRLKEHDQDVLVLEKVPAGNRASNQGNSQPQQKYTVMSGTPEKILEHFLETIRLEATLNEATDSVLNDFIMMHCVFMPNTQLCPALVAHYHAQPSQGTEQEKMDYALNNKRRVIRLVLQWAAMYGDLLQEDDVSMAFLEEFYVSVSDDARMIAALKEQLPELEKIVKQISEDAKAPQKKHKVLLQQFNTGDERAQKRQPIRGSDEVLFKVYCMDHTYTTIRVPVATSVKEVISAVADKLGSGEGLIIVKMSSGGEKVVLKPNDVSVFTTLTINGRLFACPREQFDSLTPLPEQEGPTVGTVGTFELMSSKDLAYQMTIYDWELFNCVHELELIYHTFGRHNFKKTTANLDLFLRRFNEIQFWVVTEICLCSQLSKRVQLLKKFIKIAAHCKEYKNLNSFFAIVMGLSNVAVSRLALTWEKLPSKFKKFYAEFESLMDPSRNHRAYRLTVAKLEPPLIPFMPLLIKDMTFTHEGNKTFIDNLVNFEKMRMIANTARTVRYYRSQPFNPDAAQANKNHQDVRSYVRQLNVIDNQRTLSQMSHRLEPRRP

The test addresses Rap guanine nucleotide exchange factor 4 (Homo sapiens) (UniProt Q8WZA2). Briefly: qHTS for Agonist of cAMP-regulated guanine nucleotide exchange factor 4 (EPAC2): primary screen. Further: nearly all actives have a fitted effect of over 50% in size. As to conditions: biochemical qHTS, 100% = 6.5 mM cAMP response; at 154 µM (top of the series) unless noted. Put shortly:
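Setup: EPAC2 100 nM, labeled Rap1B complex 250 nM, free GDP 50 uM. Compound titrations pinned in, brief spin, 5 min room temperature incubation. Kinetic fluorescence read over 30 min, normalized to 6.5 mM cAMP.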
On the technique in general: Quantitative high-throughput screening tests each substance at several concentrations.
Consider `COc1ccccc1OP(C)(=O)Nc1c(C)cccc1C` (stereo not drawn), for which the activation was inactive: 1.18%. With `COc1ccc(-c2ccccn2)cc1.O=[N+]([O-])c1cc([N+](=O)[O-])c(O)c([N+](=O)[O-])c1`, the activation is inactive: 2.07%. The figure for `CCCOc1ccc(NP(C)(=O)Oc2ccc(Cl)cc2)cc1` (stereo not drawn) is inactive: 2.78%; for `CP(=O)(Nc1ccc(SC(F)(F)F)cc1)Oc1ccccc1` (stereo not drawn) it is inactive: -9.26%. To `O=[N+]([O-])c1cc([N+](=O)[O-])c(-n2nnc3ccccc32)c([N+](=O)[O-])c1` belongs inactive: 3.49%. Regarding `CN(Cc1cccnc1)C(=O)COc1ccc(Cl)c(Cl)c1.O=[N+]([O-])c1cc([N+](=O)[O-])c(O)c([N+](=O)[O-])c1`, the activation was inactive: 5.39%.

Consider `O=[N+]([O-])c1cc([N+](=O)[O-])c(-c2cnn(-c3ccccc3)c2)c([N+](=O)[O-])c1`, for which the activation is inactive: 12.1%. With `Cc1nc2ccc3ccccc3c2s1.O=[N+]([O-])c1cc([N+](=O)[O-])c(O)c([N+](=O)[O-])c1`, the activation was inactive: -2.64%. Turning to `Cc1cccc(C)c1OP(C)(=O)Nc1ccc(SC(F)(F)F)cc1` (stereo not drawn), the activation was inactive: 9.67%.

As to `CP(=O)(Nc1ccc(SC(F)(F)F)cc1)Oc1ccc(Cl)cc1` (stereo not drawn), the activation is inactive: 7.32%. The figure for `CP(=O)(Oc1ccccc1)OC(c1ccccc1)C(F)(F)F` (stereo not drawn) is inactive: -5.97%. The figure for `CP(=O)(NC(=O)Nc1ccccc1)Oc1ccccc1` (stereo not drawn) is inactive: 7.58%; for `CCc1ccc(OP(C)(=O)N2CCN(c3ccc([N+](=O)[O-])cc3)CC2)cc1` (stereo not drawn) it is inactive: 9.71%; for `Cc1cc(C)cc(OP(C)(=O)Nc2ccc(SC(F)(F)F)cc2)c1` (stereo not drawn) it is inactive: -3.22%. With `CCOC(=O)c1ccc(NP(C)(=O)Oc2ccc(OC)cc2)cc1` (stereo not drawn), the activation is inactive: -1.82%. Take `O=[N+]([O-])c1cc([N+](=O)[O-])c(O)c([N+](=O)[O-])c1.c1ccc(Oc2ccncc2)cc1`: the activation was inactive: 14.8%. To `CCOP(C)(=S)SCC(=O)NC(C)C(=O)O` (stereo not drawn) belongs inactive: -0.782%; to `CP(=O)(Nc1ccccn1)Oc1ccc(Cl)cc1` (stereo not drawn), inactive: 6.89%; to `CP(=S)(Nn1cnnc1)Oc1ccccc1` (stereo not drawn), inactive: 8.61%.

In the case of `CP(=O)(Nc1ccccc1Br)Oc1ccccc1` (stereo not drawn), the activation was inactive: 11.2%. To `COc1ccccc1OP(C)(=O)Nc1ccccc1` (stereo not drawn) belongs inactive: -6.14%; to `O=[N+]([O-])c1cc([N+](=O)[O-])c(Nc2cccnc2)c([N+](=O)[O-])c1`, inactive: 3.28%.

With `O=[N+]([O-])c1ccc2c(c1)C=Nc1ccccc1O2`, the activation was inactive: 8.71%.

With `CC(C)(C)c1ccc(OP(C)(=O)Nc2ccc(SC(F)(F)F)cc2)cc1` (stereo not drawn), the activation is inactive: -17%. On to `Cc1cccc(C)c1OP(C)(N)=O` (stereo not drawn), for which the activation was inactive: -1.14%. With `COc1ccccc1OP(C)(=O)Nc1ccc(C)cc1` (stereo not drawn), the activation was inactive: 10.7%. To `Cc1ccc(NP(C)(=O)Oc2ccccc2)c(C)c1` (stereo not drawn) belongs inactive: 1.85%; to `CCOC(=O)c1ccc(NP(C)(=O)Oc2ccccc2)cc1` (stereo not drawn), inactive: 3.92%.

Turning to `Cc1cc(C)cc(OP(C)(N)=O)c1` (stereo not drawn), the activation was inactive: 1.33%.

On to `COc1ccccc1OP(C)(=O)Nc1cc(Cl)ccc1C` (stereo not drawn), for which the activation is inactive: -0.849%. To `COc1ccc(OP(C)(=O)Nc2cccc(F)c2)cc1` (stereo not drawn) belongs inactive: -1.54%. For the molecule `CCN(CC)CCCOC(=O)C(O)(c1ccccc1)c1ccccc1`, the activation is inactive: 10.5%. In the case of `COc1ccccc1-c1ccccn1.O=[N+]([O-])c1cc([N+](=O)[O-])c(O)c([N+](=O)[O-])c1`, the activation is inactive: 3.71%.
